Where “and” joins values, the source holds several entries; their conditions need not be identical. Equal entries are not always repeated.
Test system: Pleurotus ostreatus mycelia CGMCC No. 6232
Assay: Shake-flask fermentation, total content of ergothioneine in the fermentation broth by HPLC
Assay type: cell-based

## N=C(N)NCCC[C@H](N)C(=O)O [arginine]
Arginine 0.1 g/L added in fermentation medium
  Content of ergothioneine in fermentation broth: 126.4 ± 2.54 mg/L
Arginine 0.25 g/L added in fermentation medium
  Content of ergothioneine in fermentation broth: 129.8 ± 3.01 mg/L
Arginine 0.75 g/L added in fermentation medium
  Content of ergothioneine in fermentation broth: 131.7 ± 1.83 mg/L
Arginine 2 g/L added in fermentation medium
  Content of ergothioneine in fermentation broth: 134.2 mg/L and 134.2 ± 2.66 mg/L
Arginine 5 g/L added in fermentation medium
  Content of ergothioneine in fermentation broth: 132.9 ± 2.05 mg/L
Arginine 7 g/L added in fermentation medium
  Content of ergothioneine in fermentation broth: 125.5 ± 1.24 mg/L
